Earlier results in patent US12709745B2 (priority 2012, dated 2026).

Test system: ALS
Conditions: in vivo; cited from earlier work

Nc1nc2ccc(OC(F)(F)F)cc2s1 [riluzole]
prolongation of median survival: 2-3 months
